Literature values in publication PMC2361661, “A phase I pharmacokinetic and pharmacodynamic study of BGC9331 and carboplatin in relapsed gynaecological malignancies” (British Journal of Cancer, 2005).

Test system: human ovarian tumour cell lines
Details: ref Jackman et al, 2002; cited from earlier work

C#CCN(Cc1cc2c(=O)[nH]c(C)nc2cc1C)c1ccc(C(=O)N[C@@H](CCc2nnn[nH]2)C(=O)O)c(F)c1 [BGC9331]
cross-resistance to platinum-based agents: non crossresistance
